The numbers were not newly measured in article PMC4747437, which cites them from elsewhere.

The chains behind the UniProt entries cited, without tags or fusion partners. Residues count along the entry.
UniProt Q9UKL0, 293-380: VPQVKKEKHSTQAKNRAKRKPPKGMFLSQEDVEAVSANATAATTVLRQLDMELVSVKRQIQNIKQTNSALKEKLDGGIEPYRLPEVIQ

The series has as its target CoREST 293-380 (Homo sapiens) (UniProt Q9UKL0).

Broadly, the Kd is the equilibrium constant for the complex coming apart. For KDM1A (from UniProt O60341), the Kd is 7.78 nM.
